Data reported in US20210228731A1, “ANTIBODY DRUG CONJUGATES FOR ABLATING HEMATOPOIETIC STEM CELLS” (NOVARTIS AG, priority 2018, published 2021).

Test system: human HSCs in humanized NSG mice
Experiment: In vivo ablation of human HSCs from mouse host
Conditions: 10 mg/kg twice per day for 2 days intraperitoneally, bone marrow analyzed day 21
Description: To assess test agents for in vivo efficacy against human HSCs, severely immune compromised NOD.Cg-Prkdc^scid IL2^tm1wjl/SzJ mice that are humanized with human CD34+ cells were purchased from Jackson Laboratory. Percent human chimerism was determined by flow cytometry of blood samples. […] Cell populations were assessed via flow cytometry and analyzed with FlowJo.
In one particular experiment, mice were dosed with 10 mg/kg of anti-cKIT conjugate J26, J29, or J30, or isotype control conjugate J31 twice per day for 2 days. Mice were euthanized on day 21 and their bone marrow was analyzed.

J31 [Conjugate J31, reference compound]
human HSCs (human CD45+, human CD34+, human CD38-) in bone marrow: showed variable chimerism
